# Test results: patent US20260382690A1, “Dual-Domain Peptide for Depleting HMGB1 from the Circulation via Liver HSPG System” (published 2026)
# System: GSNOR
# Test: GSNOR immunofluorescence in lung sections of treated SS mice
# Conditions: 3 weeks; for decrease of GSNOR staining in lung sections: hE-HMGB1-BP 2.72 mg/kg/d, KYC 3 mg/kg/d; for GSNOR staining in alveolar microvessels versus untreated AA mice: hE-HMGB1-BP or KYC
# Protocol: The right main bronchus was ligated with silk at the carina and snap-frozen in liquid nitrogen for immunoblot analysis after resection below the ligature. The trachea was then cannulated with an Instech Solomon (20G) stainless steel feeding tube (Plymouth Meeting, PA). After the trachea was securely ligated with silk, the left lobe was inflated with 10% neutral buffered formalin at 25 cm-H2O (2.4 kPa). After 1 h, the fixed lung was stored in 10% buffered formalin for 24 h and then embedded in paraffin for histology. Lung sections (5 um) were mounted on SuperFrost Plus-coated slides (Denville Scientific, Metuchen, NJ). Slides were deparaffinized, and sections stained with hematoxylin and eosin (H&E; Sigma, St. Louis, MO; catalog #MHS16 and HT110116) or immunostained for CD31 (R&D Systems, Minneapolis, MN; Catalog #AF3628) and GSNOR (Proteintech Group, Rosemont, IL; Catalog #11051-1-AP) for co-localization studies. Four to five immunofluorescence images were randomly captured for each lung section, the fluorescence intensities were analyzed for outliers and then averaged, and the average intensity was plotted as a single data point for each mouse. Protein SNOs were analyzed by Pierce S-Nitrosylation Western Blot Kit (Thermo Fisher, Milwaukee, WI; Catalog #90105). All other mentioned reagents and chemicals were purchased from Thermo Fisher (Milwaukee, WI).
# The right main lung bronchus was ligated with silk at the carina and snap-frozen in liquid nitrogen for immunoblot analysis after resection below the ligature. The trachea was cannulated using an Instech Solomon (20G) stainless steel feeding tube (Plymouth Meeting, PA). After securely ligating the trachea with silk, the left lobe was inflated with 10% neutral buffered formalin at 25 cm-H2O (2.4 kPa). After one hour, the fixed lung was stored in 10% buffered formalin for 24 h and then embedded in paraffin for histology. Lung sections (5 μm) were mounted on SuperFrost Plus-coated slides (Denville Scientific, Metuchen, NJ). Slides were deparaffinized, and sections stained with hematoxylin and eosin (H&E; Sigma, St. Louis, MO; catalog #MHS16 and HT110116) for morphometric studies or immunostained for CD31 with a polyclonal goat IgG antibody (R&D Systems, Minneapolis, MN; Catalog #AF3628) and visualized with Alexa Fluor Plus 488-conjugated donkey anti-goat IgG (ThermoFisher, Milwaukee, WI; Catalog #A32814TR) and for GSNOR with a rabbit anti-GSNOR polyclonal antibody (Proteintech Group, Rosemont, IL; Catalog #11051-1-AP) and visualized with an Alexa Fluor 546-conjugated donkey anti-rabbit IgG (ThermoFisher, Milwaukee, WI; Catalog #A10040) for co-localization studies. Lung CD31 and GSNOR immunofluorescent images were captured using a Zeiss Axioimager Z1 microscope with Zeiss axiocam HRC 13megapixel camera (⅔″ CCD sensor). […]
Structure (SMILES),decrease of GSNOR staining in lung sections,GSNOR staining in alveolar microvessels versus untreated AA mice
CC[C@H](C)[C@H](NC(=O)CNC(=O)[C@H](CCCCN)NC(=O)[C@@H](NC(=O)[C@H](CC(=O)O)NC(=O)[C@H](Cc1ccccc1)NC(=O)[C@H](CC(N)=O)NC(=O)[C@H](CC(N)=O)NC(=O)[C@H](C)NC(=O)[C@H](CO)NC(=O)[C@H](Cc1c[nH]cn1)NC(=O)[C@H](C)NC(=O)CNC(=O)CNC(=O)[C@H](CCCNC(=N)N)NC(=O)[C@H](CC(C)C)NC(=O)[C@H](CC(C)C)NC(=O)[C@H](CCCNC(=N)N)NC(=O)[C@H](CCCCN)NC(=O)[C@H](CCCNC(=N)N)NC(=O)[C@H](CC(C)C)NC(=O)[C@H](CCCCN)NC(=O)[C@H](CCCNC(=N)N)NC(=O)[C@H](CC(C)C)NC(C)=O)C(C)C)C(N)=O,64%,not reduced to the levels observed in these same microvessels in untreated AA mice
CC(=O)N[C@@H](CCCCN)C(=O)N[C@@H](Cc1ccc(O)cc1)C(=O)N[C@@H](CS)C(N)=O,85%,not reduced to the levels observed in these same microvessels in untreated AA mice
